Measurements reported in ChEMBL document CHEMBL4823282, “Novel Broad-Spectrum Antimicrobial Peptide Derived from Anoplin and Its Activity on Bacterial Pneumonia in Mice” (J Med Chem, 2021).
pIC50: −log10 of the molar value. Converted amounts (≈) assume the structure as drawn.

Tests used:
[1] = Cytotoxicity against human glomerular mesangial cells incubated for 12 hrs by MTT assay; type: cell-based; details: Glomerular mesangial cell
Pseudomonas aeruginosa = assay: Antibacterial activity against Pseudomonas aeruginosa ATCC 27853 incubated for 18 hrs by CLSI based broth dilution method; type: functional
Escherichia coli = assay: Antibacterial activity against Escherichia coli ATCC 25922 incubated for 18 hrs by CLSI based broth dilution method; type: functional
Bacillus subtilis = assay: Antibacterial activity against Bacillus subtilis ATCC 23857 incubated for 18 hrs by CLSI based broth dilution method; type: functional
Staphylococcus aureus = assay: Antibacterial activity against Staphylococcus aureus ATCC 25923 incubated for 18 hrs by CLSI based broth dilution method; type: functional
[2] = system: Staphylococcus epidermidis; assay: Antibacterial activity against Staphylococcus epidermidis ATCC 12228 incubated for 18 hrs by CLSI based broth dilution method; type: functional

## CC[C@H](C)[C@H](NC(=O)CN)C(=O)NCC(=O)N[C@@H](C)C(=O)N[C@H](C(=O)N[C@@H](CC(C)C)C(=O)N[C@@H](CCCCN)C(=O)N[C@H](C(=O)N[C@@H](CC(C)C)C(=O)N[C@H](C(=O)N[C@H](C(=O)NCC(=O)N[C@@H](CC(C)C)C(=O)N1CCC[C@H]1C(=O)N[C@@H](C)C(=O)N[C@@H](CC(C)C)C(=O)N[C@H](C(=O)N[C@@H](CO)C(=O)N[C@@H](Cc1c[nH]c2ccccc12)C(=O)N[C@H](C(=O)N[C@@H](CCCCN)C(=O)N[C@@H](CCCNC(=N)N)C(=O)N[C@@H](CCCCN)C(=O)N[C@@H](CCCNC(=N)N)C(=O)N[C@@H](CCC(N)=O)C(=O)N[C@@H](CCC(N)=O)C(N)=O)[C@@H](C)CC)[C@@H](C)CC)[C@@H](C)O)[C@@H](C)O)C(C)C)C(C)C [MELITTIN]
[1]
  pIC50: 5.83
Pseudomonas aeruginosa
  MIC: 8 µM (≈ 22.8 µg/mL)
Escherichia coli
  MIC: 8 µM (≈ 22.8 µg/mL)
Bacillus subtilis
  MIC: 1 µM (≈ 2.85 µg/mL)
Staphylococcus aureus
  MIC: 2 µM (≈ 5.69 µg/mL)
[2]
  MIC: 4 µM (≈ 11.4 µg/mL)
